# Laboratory results taken from patent US20240217961A1 (MONOPTEROS THERAPEUTICS, INC., priority 2021, published 2024).
# Assay: Dynamic Vapor Sorption (DVS) at 25° C.
# Conditions: 70% RH, method 50-90-0-50% RH, dm/dt = 0.01%
substance,measurement,value
(S)-mepazine succinate salt,DVS Desorp (%),0.16%
same,DVS Sorption (%),0.14%
